ChEMBL document CHEMBL1124616, “Hybrid cholecystokinin (CCK) antagonists: new implications in the design and modification of CCK antagonists” (J Med Chem, 1989)
pIC50: −log10 of the molar value.

Amino acid sequences for entries named in this document (tags omitted).
UniProt Q63931, whole entry: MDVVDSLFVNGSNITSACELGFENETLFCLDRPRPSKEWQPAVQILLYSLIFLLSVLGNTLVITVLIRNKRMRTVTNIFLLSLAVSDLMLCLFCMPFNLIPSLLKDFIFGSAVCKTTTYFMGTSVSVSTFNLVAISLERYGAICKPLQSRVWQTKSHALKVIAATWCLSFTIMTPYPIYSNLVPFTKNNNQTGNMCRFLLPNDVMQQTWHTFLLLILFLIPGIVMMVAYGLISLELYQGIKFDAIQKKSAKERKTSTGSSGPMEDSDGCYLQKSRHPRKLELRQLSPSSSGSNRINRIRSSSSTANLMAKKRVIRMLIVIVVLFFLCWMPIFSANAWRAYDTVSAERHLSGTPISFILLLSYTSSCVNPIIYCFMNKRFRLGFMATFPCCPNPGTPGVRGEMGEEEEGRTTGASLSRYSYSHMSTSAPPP

Biological target: Cholecystokinin receptor type A (Cavia porcellus, UniProt Q63931)
Assay: Compound was evaluated for the binding affinity against CCK A receptor in pancreatic acinar cell

- pIC50: 7.72
Compound: CCCCCN(CCCCC)C(=O)[C@@H](CCC(=O)O)NC(=O)c1cc2ccccc2[nH]1
